From patent US5648336A (University of Colorado, priority 1994, dated 1997)

Target: T1, B1 receptors (Oryctolagus cuniculus, UniProt P48748)
T1 construct: The thorax was opened and the thoracic aorta carefully removed; from tissue; host or cells: rabbit thoracic aorta spiral strips
T1 sequence (P48748 1-352): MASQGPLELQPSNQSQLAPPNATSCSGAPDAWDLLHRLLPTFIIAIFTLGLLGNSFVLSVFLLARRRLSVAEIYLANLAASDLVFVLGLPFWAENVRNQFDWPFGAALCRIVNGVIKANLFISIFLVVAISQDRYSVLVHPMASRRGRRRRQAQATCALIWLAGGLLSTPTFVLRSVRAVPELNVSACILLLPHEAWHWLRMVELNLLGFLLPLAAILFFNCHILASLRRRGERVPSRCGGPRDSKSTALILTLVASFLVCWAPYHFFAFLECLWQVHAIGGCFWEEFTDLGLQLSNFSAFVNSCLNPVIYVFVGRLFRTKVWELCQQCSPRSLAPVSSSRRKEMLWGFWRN
Test: B1 receptor bioassay, rabbit aorta strips contracted with des-Arg9-BK
Assay type: cell-based
Details: 50% reduction of sustained contraction to 10^-7 M des-Arg9-BK; read-out: Rabbit Aorta p IC50 B1 receptors (converted)
Procedure: Male New Zealand white rabbits, weight range 2-3 kg, were killed by an overdose of pentobarbital i.v. The thorax was opened and the thoracic aorta carefully removed. […] The tissues were placed under 1 gm isometric tension and allowed to equilibrate for 1H. At time 1h, a concentration-effect curve was constructed to the selective B1 agonist des-Arg^9 -BK. This was repeated at time 3 hours. […] Once the contraction was sustained, the compound to be assayed was applied to the tissue bath in a cumulative manner. The concentration of the compound which produced a 50% reduction of the sustained contraction was calculated. The negative logarithm of this concentration was calculated and expressed as the […].

CC(C)C[C@H](NC(=O)[C@@H]1CCCN1C(=O)[C@H](CO)NC(=O)[C@H](Cc1ccccc1)NC(=O)CNC(=O)[C@@H]1CCCN1C(=O)[C@@H]1CCCN1C(=O)[C@H](CCCN=C(N)N)NC(=O)[C@@H](N)CCCCN)C(=O)O [des-Arg^10 -Leu^9 -kallidin, reference compound]
IC50: 12.6 nM
